The structures appear in SMILES notation.

Chains of the proteins cited; added tags and fusions are not shown.
UniProt P08913, whole entry: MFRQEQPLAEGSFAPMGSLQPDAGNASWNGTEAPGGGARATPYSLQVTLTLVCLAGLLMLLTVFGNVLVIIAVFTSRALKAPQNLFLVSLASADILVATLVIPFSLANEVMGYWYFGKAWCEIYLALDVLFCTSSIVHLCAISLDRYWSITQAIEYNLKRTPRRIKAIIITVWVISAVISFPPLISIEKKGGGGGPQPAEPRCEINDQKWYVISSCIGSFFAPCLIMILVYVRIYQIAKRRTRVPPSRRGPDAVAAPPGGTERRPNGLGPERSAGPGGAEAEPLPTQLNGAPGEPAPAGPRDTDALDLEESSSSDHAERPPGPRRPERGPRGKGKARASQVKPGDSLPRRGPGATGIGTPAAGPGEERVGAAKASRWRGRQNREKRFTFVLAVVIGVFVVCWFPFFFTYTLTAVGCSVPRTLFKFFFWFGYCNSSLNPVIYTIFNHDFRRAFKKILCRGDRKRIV

This assay has as its target Alpha-2A adrenergic receptor (Homo sapiens, UniProt P08913). The assay can be described thus: biochemical.

Turning to `O=C(OC[C@H]1CCN1)[C@@H]1[C@H]2C[C@H]3c4[nH]c5ccccc5c4CCN3C[C@@H]2CC[C@@H]1O`, the response was half-maximal at 13 nM (EC50).
`CC(C)(C)OC(=O)[C@@H]1[C@H]2C[C@H]3c4[nH]c5ccccc5c4CCN3C[C@@H]2CC[C@@H]1O`: the EC50 (usually the concentration giving half of the maximal effect) is 83 nM.
On to `CC(C)CCOC(=O)[C@@H]1[C@H]2C[C@H]3c4[nH]c5ccccc5c4CCN3C[C@@H]2CC[C@@H]1O`, for which the EC50 was 21 nM.
Under `O=C(OC[C@H]1CCNC1)[C@@H]1[C@H]2C[C@H]3c4[nH]c5ccccc5c4CCN3C[C@@H]2CC[C@@H]1O` stands 15 nM; under `CC(C)OC(=O)[C@@H]1[C@H]2C[C@H]3c4[nH]c5ccccc5c4CCN3C[C@@H]2CC[C@@H]1O`, 48 nM.
The same measure for `CNCCOC(=O)[C@@H]1[C@H]2C[C@H]3c4[nH]c5ccccc5c4CCN3C[C@@H]2CC[C@@H]1O`: 48 nM; for `O=C(OC1CCCNC1)[C@@H]1[C@H]2C[C@H]3c4[nH]c5ccccc5c4CCN3C[C@@H]2CC[C@@H]1O` (some centres undefined): 73 nM.
In turn, `O=C(OCC1CNC1)[C@@H]1[C@H]2C[C@H]3c4[nH]c5ccccc5c4CCN3C[C@@H]2CC[C@@H]1O` returned an EC50 of 10 nM.
Under `O=C(OC[C@@H]1CCN1)[C@@H]1[C@H]2C[C@H]3c4[nH]c5ccccc5c4CCN3C[C@@H]2CC[C@@H]1O` stands 55 nM; under `O=C(OC[C@@H]1CCNC1)[C@@H]1[C@H]2C[C@H]3c4[nH]c5ccccc5c4CCN3C[C@@H]2CC[C@@H]1O`, 16 nM; under `O=C(OC1CNC1)[C@@H]1[C@H]2C[C@H]3c4[nH]c5ccccc5c4CCN3C[C@@H]2CC[C@@H]1O`, 17 nM.
The compound `CCOC(=O)[C@@H]1[C@H]2C[C@H]3c4[nH]c5ccccc5c4CCN3C[C@@H]2CC[C@@H]1O` yielded a concentration for a half-maximal effect (EC50) of 11 nM.
The same measure for `O=C(O[C@@H]1CCNC1)[C@@H]1[C@H]2C[C@H]3c4[nH]c5ccccc5c4CCN3C[C@@H]2CC[C@@H]1O`: 26 nM; for `O=C(O[C@H]1CCNC1)[C@@H]1[C@H]2C[C@H]3c4[nH]c5ccccc5c4CCN3C[C@@H]2CC[C@@H]1O`: 20 nM.

The values above are taken from ChEMBL document CHEMBL5500395 (J Med Chem, 2024).
